This is a selection; strong and weak results do not stand in their true shares. Calls of active or inactive are those of the source. Cut-off read from the data, not from the text of the source: active = activity change below about -65%; inconclusive = mostly about -30% to -63%; inactive = weaker than that.

By UniProt entry, the sequences of proteins in these tests, tags left out.
UniProt Q15475, whole entry: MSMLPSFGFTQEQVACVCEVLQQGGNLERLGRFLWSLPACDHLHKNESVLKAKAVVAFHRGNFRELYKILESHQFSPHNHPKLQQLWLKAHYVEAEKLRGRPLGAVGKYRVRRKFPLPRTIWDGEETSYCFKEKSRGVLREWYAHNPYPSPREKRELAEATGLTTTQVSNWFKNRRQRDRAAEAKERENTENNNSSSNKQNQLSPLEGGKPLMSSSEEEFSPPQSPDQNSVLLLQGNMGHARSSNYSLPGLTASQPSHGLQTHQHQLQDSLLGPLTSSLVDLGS

Consider 2 compounds from PubChem BioAssay AID651725 (National Center for Advancing Translational Sciences (NCATS), 2012).
% is set by controls: 0 for no effect and ±100 for the full control effect.

The experiment addresses Homeobox protein SIX1 (Homo sapiens) + Protein phosphatase EYA2 (Homo sapiens) (UniProt Q15475+O00167). Briefly: qHTS Assay for Inhibitors of the Six1/Eya2 Interaction. As to conditions: AlphaScreen GST-Six1/His-Eya2 binding, biochemical; hits give low values. The text has this: Its expression is low or undetectable in normal adult breast tissue but the gene is over-expressed in 50% of primary breast tumors and 90% of metastatic lesions. […] Similar to Six1, Eya2 is also not expressed in most normal adult tissues, but is reexpressed in cancers. The Six1-Eya interaction is essential for proliferation during embryonic development, and both Six1 and Eya2 have been independently implicated in the same types of cancer. Because Six1 and Eya2 are embryonic genes with little expression in adult tissues, inhibitors of their expression/activity are likely to have limited side effects. Our goal is to identify inhibitors of the Six1/Eya interaction for potential cancer therapy. To this end, we have developed a homogenous AlphaScreen assay targeting the Six1/Eya interaction. We performed a large scale HTS of the Molecular Libraries Small Molecule Repository (MLSMR) to identify inhibitors of the Six1/Eya interaction as potential anti-cancer therapeutics. Compounds identified can also be used as chemical probes to better understand the biological functions of Six1 and Eya. […]
The first step of the 5 uL AlphaScreen assay is to dispense assay buffer (50 mM Tris, pH 8.0, 300 mM NaCl, 0.05% BSA, 0.02% Tween 20, 1 mM TCEP) into a Greiner 1536 white solid bottom microtiter plate (789175-F). […] The plate is read using a Perkin Elmer Envision using an AlphaScreen protocol.
Background: qHTS replaces the single test concentration by a dilution series.
For `CCC(=O)N(c1ccccc1)C1(COC)CCN(CCn2nnn(CC)c2=O)CC1`, the activity change is inactive: 1.95%.

As for `CCC(=O)N(c1ccccc1)C1(COC)CCN(CCc2cccs2)CC1`, the activity change was inactive: -1.47%.
